{"source": "paper PMC10518421", "about": "“Zebrafish as model system for the biological characterization of CK1 inhibitors” (Frontiers in Pharmacology, 2023)", "origin": "cited, not measured here", "system": "CK1δ", "details": "read-out: IC50 values CK1δ; prior to standardization, ref García-Reyes et al., 2018; cited from earlier work", "data": [{"smiles": "COc1cccc(Cn2c(SCC(=O)Nc3nc4ccc(C(F)(F)F)cc4s3)nc3c(c2=O)SCC3)c1OC", "values": [{"measurement": "IC50", "value": 760, "unit": "nM"}]}]}
